Reference: PubChem BioAssay AID680 (PCMD, 2007)
The list shows a part of the results, in another mix than the full data. Activity calls are given as the source filed them. No stated cut-off is given here; in the data, active means inhibition above about 20% (passing the limit was not always enough); inactive means the rest.

The chains behind the UniProt entries cited, without tags or fusion partners.
UniProt P03951, whole entry, looked up: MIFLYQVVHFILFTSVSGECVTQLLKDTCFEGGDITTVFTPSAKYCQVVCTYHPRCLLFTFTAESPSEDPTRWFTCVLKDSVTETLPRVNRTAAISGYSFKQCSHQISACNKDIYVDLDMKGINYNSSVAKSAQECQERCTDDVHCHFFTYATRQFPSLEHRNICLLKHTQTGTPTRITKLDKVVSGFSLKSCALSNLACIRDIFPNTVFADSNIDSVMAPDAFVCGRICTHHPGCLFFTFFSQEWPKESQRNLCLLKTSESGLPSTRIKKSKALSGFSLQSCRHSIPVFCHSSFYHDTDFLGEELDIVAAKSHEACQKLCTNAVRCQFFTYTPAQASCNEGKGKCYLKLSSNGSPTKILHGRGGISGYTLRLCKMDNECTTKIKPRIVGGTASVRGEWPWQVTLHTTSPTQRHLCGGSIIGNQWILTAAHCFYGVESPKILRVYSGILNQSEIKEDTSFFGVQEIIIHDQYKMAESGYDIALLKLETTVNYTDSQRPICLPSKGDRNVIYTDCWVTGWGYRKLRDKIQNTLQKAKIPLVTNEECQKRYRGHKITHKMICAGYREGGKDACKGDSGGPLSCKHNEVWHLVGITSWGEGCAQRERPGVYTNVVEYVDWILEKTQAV

target: Coagulation factor XI (Homo sapiens) (UniProt P03951); test: human factor XIa inhibition by mixtures – biochemical, 10-compound mixtures, primary screen (AID 680); conditions: purified FXIa, fluorogenic substrate, pooled mixtures; at 5 µM; hits give high values;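 further: each value is inhibition by a whole ten-compound pool holding the compound; 0% = enzyme with no mixture and 100% = wells lacking enzyme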

SMILES | inhibition
Cc1c2non([O-])c-2c(C)[n+](=O)[n+]1[O-] | inactive: 4.2%
CCc1nc2c(n1)c1c(non1O)c1c2no[n+]1[O-] | inactive: 2.02%
O=P(Nc1nccs1)(c1ccccc1)c1ccccc1 | inactive: -1.48%
c1nnnn1CCn1cnnn1 | inactive: 3.35%
O=C(OC1CN2CCC1CC2)c1cccc(Cl)c1 (stereo not given) | inactive: 5.18%
COC(=O)c1cc2c(s1)N=C(c1ccccc1)N(C)P2(=O)N1CCOCC1 (stereo not given) | inactive: 42%
O=P1(Nc2nc3ccc(Cl)cc3s2)COc2ccccc2O1 (stereo not given) | inactive: 7.66%
Cc1cccc(OCC(=O)OC2CN3CCC2CC3)c1 (stereo not given) | inactive: 7.7%
CCOP1(=S)c2c(C)nn(CCC#N)c2N=C(c2ccccc2F)N1C (stereo not given) | inactive: -8%
O=P(Nc1nccs1)(c1ccccc1)c1nc2ccccc2s1 (stereo not given) | inactive: 3.68%
CCOP1(=S)c2c(C)nn(CCC#N)c2N=C(c2ccc(F)cc2)N1C (stereo not given) | inactive: 0.67%
Cc1nn(-c2ccccc2)c2c1P(=O)(N1CCOCC1)N(C)C(c1ccccc1)=N2 (stereo not given) | inactive: 3.04%
O=P1(Nc2ncccn2)COc2ccccc2OC1 | inactive: -0.245%
O=P1(Nc2ccc(Br)cn2)COc2ccccc2OC1 | inactive: 3.97%
Cc1ccc(OCC(=O)OC2CN3CCC2CC3)cc1 (stereo not given) | inactive: 3.26%
O=P1(Nc2ccccn2)COc2ccccc2OC1 | inactive: 7.19%
Clc1n[nH]nc1-c1nn[nH][15n]1 | inactive: 17.3%
COP1(=S)c2c(C)nn(CCC#N)c2N=C(c2ccc(F)cc2)N1C (stereo not given) | inactive: 4.6%
O=C(COc1ccccc1)OC1CN2CCC1CC2 (stereo not given) | inactive: 10.4%
O=C(OC1CN2CCC1CC2)C12CC3CC(CC(C3)C1)C2 (stereo not given) | inactive: 3.45%
